RXFP1 antag: blocks the human relaxin receptor RXFP1; activity change, negative = inhibition, % at 57.5 µM; actives 0.59% (n = 350,000); AID 1259400; HEK293-RXFP1, relaxin-stimulated cAMP HTRF, 30 min; active compounds read low; Q9HBX9;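 active = activity change of -60% or lower, but not beyond a set lower limit; inconclusive = change between -60% and -40%, or beyond the set limit; inactive = change above -40%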
miR-21 reporter: miR-21 reporter, rising signal; HeLa miR-21 FLuc reporter, luciferase, 48 h; Potency, µM (doses to about 38.3 µM); 340,000 tested, under 10 active; AID 2288; active = well fitted rising curve with a large enough effect; inconclusive = small, poorly fitted or top-dose-only effect; inactive = no such curve, though single readings can be large or run the other way;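 further: miR-21 action dims this reporter so a rising signal means less miR-21 action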
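Compounds were titrated across several concentrations (up to approximately 40 uM) and incubated 48 hours with HeLa miR-21-FLuc reporter cells (miR-21 target sequence downstream of FLuc, endogenous miR-21). Readout was firefly luciferase luminescence after lytic detection reagent.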
GALK inhibitor: inhibitors of human galactokinase | P51570 | Purified GALK, Kinase-Glo residual ATP luminescence | Potency, µM (doses to about 57.5 µM), actives largely listed as inhibitors | actives 0.007% (n = 270,000) | AID 1868
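Kinase-Glo Plus luminescence measured ATP left after a 1 h room-temperature reaction. The reaction used 5 nM GALK, 100 uM galactose and 35 uM ATP at pH 8.0 (20 mM HEPES, 5 mM MgCl2, 60 mM NaCl, 1 mM DTT, 0.01% BSA).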
Luc counter: counter-screen: inhibitors of Kinase-Glo firefly luciferase. Potency, µM (titrated, usually from 38.3 µM), hits mostly inhibitors. Kinase-Glo luciferase, ATP luminescence, 8 min. actives 0.28% (n = 200,000). Q27757; also: nearly all actives have a fitted effect of over 60% in size
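Luminescence was the read-out, taken after 8-minute incubation at ambient temperature. Luciferase turned over luciferin with 10 uM ATP in imidazole pH 7.2 buffer containing KCl, MgCl2, Tween 20 and BSA.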
PKM2 act: increases activity of human pyruvate kinase M2; AID 1631; Potency, µM (doses to about 57.5 µM), actives largely listed as activators; actives 0.34% (n = 260,000); purified PKM2, Kinase-Glo ATP luminescence, activation; response scale: 0% is enzyme alone, no compound; also: nearly all actives have a fitted effect of over 55% in size
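Purified hPK-M2 (>95% pure) converted ADP (0.1 mM final) to ATP with 0.5 mM PEP in 50 mM imidazole pH7.2, KCl, MgCl2, Tween 20, BSA; 1 h at room temperature. ATP detected by Kinase-Glo luminescence.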
RXFP1 ag: agonists of human relaxin receptor RXFP1 | HEK293T-RXFP1 cAMP TR-FRET, 30 min; response scale: percent of porcine relaxin response, buffer zero | Potency, µM (doses to about 57.5 µM), actives largely listed as activators | actives 0.3% (n = 370,000) | AID 2676; also: nearly all actives have a fitted effect of over 60% in size
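HEK293T cells stably expressing RXFP1 were pretreated with the PDE4 inhibitor Ro 20174, exposed to compounds for 30 min at 37C, lysed, and cAMP was read by TR-FRET. Data normalized to buffer (basal) and 29 nM porcine relaxin (100%).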
A number is an active result; - = inactive; ? = inconclusive; . = no result given; [ ] = dose if it differs, or a comment. Most compounds without a hit are left out; they make up all but 0.92% or so of the library. Unless noted, calls follow the shape of the dose curve; as a rule, active = well fitted curve in the direction sought with a large enough effect; inconclusive = small, poorly fitted or top-dose-only effect, or another doubt; inactive = no such curve, though single readings can be large; an effect the other way counts as inactive or inconclusive.

SMILES	RXFP1 antag	miR-21 reporter	GALK inhibitor	Luc counter	PKM2 act	RXFP1 ag
Cc1ccc(Cl)cc1-n1ncc2c(NC3CCCCC3)ncnc21	-	-	.	.	.	-
Clc1cccc(-n2ncc3c(NC4CCCCC4)ncnc32)c1	-70	-	.	.	.	-
CCOC(=O)c1c(C)[nH]c(C(=O)COC(=O)CCSc2ccccc2)c1C	-	-	-	-	-	-
CC(=O)c1c(C)[nH]c(C(=O)COC(=O)CCSc2ccccc2)c1C	-64	-	.	-	-	-
COc1ccc(S(=O)(=O)Nc2ccc(F)c(Cl)c2)cc1OC	-	-	-	-	16µM	-
O=C(NC(=S)Nn1cnc2c(cnn2-c2ccccc2)c1=O)c1ccc(Oc2ccccc2)cc1	.	-	-	-	-	-
O=C(NC(=S)Nn1cnc2c(cnn2-c2ccccc2)c1=O)c1ccc(Cl)cc1	-72	-	-	-	-	-
CCC(CC)=NNc1ccc(S(N)(=O)=O)cc1[N+](=O)[O-]	-	-	-	.	18µM	-
C=CCN1c2ccccc2[C@]23C[C@@H](C(=O)OC)N(S(=O)(=O)c4ccc5c(c4)OCCN5C)C2=NC(C(=O)OC)=C(C(=O)OC)[C@H]13	.	.	.	-[7.66 µM]	-[11.5 µM]	.
Cc1ccc(NC(=O)C2CCN(S(=O)(=O)c3c(C)n[nH]c3C)CC2)nc1	-	-	-	-	-	-
Cc1sc(NC(=O)CSC2=NCCS2)nc1-c1ccccc1	-	-	-	-	-	-
CC(=O)N1CC(=O)N=C1SCC(=O)Nc1nc(-c2ccccc2)c(-c2ccccc2)s1	-86	-	-	-	-	-
CC/C=C\C[C@H](O)/C=C/C=C\C/C=C\C/C=C\CCCC(=O)O	.	.	.	-	.	.
O=C(CN1C(=O)C2CCCCC2C1=O)Nc1nc(-c2ccc(F)cc2)cs1 (stereo not drawn)	?	.	.	.	.	-
O=C(Cc1ccc(F)cc1)Nc1nc(-c2ccc(F)c(F)c2)cs1	-88	-	-	.	-	-
COc1ccc(CC(=O)Nc2nc(-c3ccc(F)c(F)c3)cs2)cc1	-	-	-	.	-	-
O=C(CN1C(=O)C2CC=CCC2C1=O)Nc1nc(-c2ccc(F)cc2)cs1 (stereo not drawn)	-84	.	.	.	.	-
Cc1ccc(S(=O)(=O)c2nc(-c3ccco3)oc2N2CCC(C)CC2)cc1	-63	-	-	.	-	-
CCCNC(=O)C1CCC(Cn2c(=O)c3sccc3n(CC(=O)NCc3cccc(OC)c3OC)c2=O)CC1 (stereo not drawn)	.	-	.	.	.	22µM
CN(C)CCNC(=O)c1ccc(Cc2nc3ccccc3[nH]2)cc1	.	.	.	-	.	.
Cc1ccc2c(c1)c1nnc(SCC(=O)N3CCCc4ccccc43)nc1n2CC(=O)O	-	-	-	10µM	-	-
CCc1nnc(SCC(=O)N2CCCc3ccccc32)nc1CC	-	-	-	-	-	-
CC(C)(C)c1ccc(/C([O-])=C(/C(=S)NCc2ccco2)[n+]2ccccc2)cc1	.	-	-	-	-	25µM
COc1ccc(-n2c(=S)[nH]c3cc(C(=O)NCc4ccccc4)ccc3c2=O)c(OC)c1	-	-	-	.	-	-
COc1ccc(-n2c(=S)[nH]c3cc(C(=O)NCc4cccnc4)ccc3c2=O)c(OC)c1	-71	-	-	.	-	-
SMILES	RXFP1 antag	miR-21 reporter	GALK inhibitor	Luc counter	PKM2 act	RXFP1 ag
O=S(=O)(Nc1ccccn1)c1ccc(-n2cccn2)cc1	-108	-	-	.	.	-
N/C(=N\OC(=O)c1cccs1)C1(c2ccc(Cl)cc2Cl)CC1	-115	-	-	.	-	-
Cc1ccc(CN(CC2CCCO2)C(=O)CN2C(=O)C(C(C)C)Oc3ccccc32)o1 (stereo not drawn)	-	-	-	-	32µM	-
CC(C)C1Oc2ccccc2N(CC(=O)N(Cc2ccccn2)CC2CCCO2)C1=O (stereo not drawn)	-	-	-	-	-	-
CCOC(=O)c1ccc(NC(=O)/C=C/c2cccs2)cc1	-102	-	-	-	-	-
O=C1C=C(c2ccccc2)C(=O)N1Nc1ccccc1	-109	?	-	-	-	-

Screening data deposited in PubChem by National Center for Advancing Translational Sciences (NCATS).
